Data taken from US8431704B2, “Quinoline or isoquinoline substituted P2X7 antagonists” (Janssen Pharmaceutica NV, priority 2008, dated 2013).

Amino acid sequences for entries named in this document (tags omitted).
UniProt Q99572, whole entry: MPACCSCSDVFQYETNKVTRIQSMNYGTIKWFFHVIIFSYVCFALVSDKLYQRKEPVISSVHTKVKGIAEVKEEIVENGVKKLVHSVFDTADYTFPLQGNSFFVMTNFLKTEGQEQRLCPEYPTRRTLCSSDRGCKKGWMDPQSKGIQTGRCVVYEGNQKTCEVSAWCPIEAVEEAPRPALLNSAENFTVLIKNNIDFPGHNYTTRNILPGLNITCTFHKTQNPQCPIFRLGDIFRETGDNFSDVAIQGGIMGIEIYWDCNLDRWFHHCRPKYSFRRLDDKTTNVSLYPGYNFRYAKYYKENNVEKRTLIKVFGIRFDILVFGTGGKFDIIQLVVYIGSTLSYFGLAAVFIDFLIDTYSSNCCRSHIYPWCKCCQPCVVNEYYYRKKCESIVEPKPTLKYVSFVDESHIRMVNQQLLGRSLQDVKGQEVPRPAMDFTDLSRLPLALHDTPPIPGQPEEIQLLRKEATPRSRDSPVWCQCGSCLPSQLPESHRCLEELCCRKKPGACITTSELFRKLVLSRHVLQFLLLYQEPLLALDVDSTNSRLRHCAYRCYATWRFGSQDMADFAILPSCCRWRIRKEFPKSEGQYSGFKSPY

What follows are molecules tested against P2X7 (Homo sapiens, UniProt Q99572) (assay: THP-1 YoPro uptake assay (BzATP-stimulated Yo-Pro-1 uptake)). Settings: Table F-10, THP-1 cells.

Going from `O=C(NCC(c1cnc(C(F)(F)F)nc1)N1CCC(F)(F)CC1)c1c(F)ccc2ncccc12` (stereo not shown) to `O=C(NCC(c1cnc(C(F)(F)F)nc1)N1CCC(F)(F)CC1)c1c(Cl)ccc2ncccc12` (stereo not shown), the “mean pIC50 values for P2X7 antagonism” value falls from 7.84 to 7.64.

Compared with `O=C(NCC(c1cnc(C(F)(F)F)nc1)N1CCC(F)(F)CC1)c1ccnc2ccccc12` (stereo not shown), `O=C(NCC(c1cnc(C(F)(F)F)nc1)N1CCC(F)(F)CC1)c1cccc2c(N3CCOCC3)nccc12` (stereo not shown) is lower in “mean pIC50 values for P2X7 antagonism” value: 7.25 for the first, 6.86 for the second.

`COc1ccc2c(C(=O)NCC(c3cnc(C(F)(F)F)nc3)N3CCC(F)(F)CC3)c(Cl)ccc2n1` (stereo not shown) and `CC(C)Oc1ccc2c(C(=O)NCC(c3cnc(C(F)(F)F)nc3)N3CCC(F)(F)CC3)c(Cl)ccc2n1` (stereo not shown) are within 0.2 log units of each other in “mean pIC50 values for P2X7 antagonism” value: 7.86 for the first, 8.05 for the second.

First: O=C(NCC(c1cnc(C(F)(F)F)nc1)N1CCOCC1)c1cccc2c(NCCO)nccc12 (stereo not shown)
Second: O=C(NCC(c1cnc(C(F)(F)F)nc1)N1CCOCC1)c1cccc2c(N3CCOCC3)nccc12 (stereo not shown)
The “mean pIC50 values for P2X7 antagonism” value of the first is higher: 6.47 for the first, 5.94 for the second.

Going from `NCCCOc1ccc2c(C(=O)NCC(c3cnc(C(F)(F)F)nc3)N3CCC(F)(F)CC3)c(Cl)ccc2n1` (stereo not shown) to `O=C(NCC(c1cnc(C(F)(F)F)nc1)N1CCOCC1)c1cc(N2CC(CO)C2)nc2ccccc12` (stereo not shown), the “mean pIC50 values for P2X7 antagonism” value falls from 8.20 to 7.38.

Same assay, conditions: Table F-10, THP-1 cells, tested form: TFA

`O=C(NCC(c1cnc(N2CCCC2)nc1)N1CCC(F)(F)CC1)c1c(Cl)ccc2ncccc12` (stereo not shown) and `O=C(NCC(c1cnc(N2CCCCC2)nc1)N1CCC(F)(F)CC1)c1c(Cl)ccc2ncccc12` (stereo not shown) are within 0.2 log units of each other in “mean pIC50 values for P2X7 antagonism” value: 8.21 for the first, 8.36 for the second.

`O=C(NCC(c1cnc(C(F)(F)F)nc1)N1CCOCC1)c1cc(N2CCNCC2)nc2ccccc12` (stereo not shown) and `O=C(NCC(c1cnc(C(F)(F)F)nc1)N1CCOCC1)c1cc(N2CC[C@@H](O)C2)nc2ccccc12` (stereo partly shown) are within 0.2 log units of each other in “mean pIC50 values for P2X7 antagonism” value: 7.61 for the first, 7.57 for the second.

`O=C(NCC(c1cnc(C(F)(F)F)nc1)N1CCOCC1)c1c(Cl)ccc2nc(OCC3CCCC3)ccc12` (stereo not shown) and `O=C(NCC(c1cnc(C(F)(F)F)nc1)N1CCOCC1)c1c(Cl)ccc2nc(OCC3CCCO3)ccc12` (stereo not shown) are within 0.2 log units of each other in “mean pIC50 values for P2X7 antagonism” value: 7.60 for the first, 7.50 for the second.

Going from `CN1CCN(c2ncc(C(CNC(=O)c3c(Cl)ccc4ncccc34)N3CCC(F)(F)CC3)cn2)CC1` (stereo not shown) to `O=C(NCC(c1cnc(N2CCC2)nc1)N1CCC(F)(F)CC1)c1c(Cl)ccc2ncccc12` (stereo not shown), the “mean pIC50 values for P2X7 antagonism” value rises from 6.63 to 8.65.

First: Cc1ccc2nc(N3CCN(C)CC3)ccc2c1C(=O)NCC(c1cnc(C(F)(F)F)nc1)N1CCC(F)(F)CC1 (stereo not shown)
Second: Cc1ccc2nc(N3CCOCC3)ccc2c1C(=O)NCC(c1cnc(C(F)(F)F)nc1)N1CCC(F)(F)CC1 (stereo not shown)
The “mean pIC50 values for P2X7 antagonism” value of the first is higher: 8.24 for the first, 7.88 for the second.

Compared with `Nc1ccc2c(C(=O)NCC(c3cnc(C(F)(F)F)nc3)N3CCOCC3)c(Cl)ccc2n1` (stereo not shown), `O=C(NCC(c1cnc(C(F)(F)F)nc1)N1CCOCC1)c1c(Cl)ccc2nc(O)ccc12` (stereo not shown) is lower in “mean pIC50 values for P2X7 antagonism” value: 8.14 for the first, 6.79 for the second.

`O=C(NCC(c1cnc(C(F)(F)F)nc1)N1CCOCC1)c1c(Cl)ccc2nc(OCCC(F)(F)F)ccc12` (stereo not shown) and `CC(C)CCOc1ccc2c(C(=O)NCC(c3cnc(C(F)(F)F)nc3)N3CCOCC3)c(Cl)ccc2n1` (stereo not shown) are the same in “mean pIC50 values for P2X7 antagonism” value: 7.31 for the first, 7.31 for the second.

First: O=C(NCC(c1cnc(N2CCOCC2)nc1)N1CCC(F)(F)CC1)c1c(Cl)ccc2ncccc12 (stereo not shown)
Second: O=C(NCC(c1cnc(N2CCNCC2)nc1)N1CCC(F)(F)CC1)c1c(Cl)ccc2ncccc12 (stereo not shown)
The “mean pIC50 values for P2X7 antagonism” value of the first is higher: 7.92 for the first, 4.90 for the second.

First: O=C(NCC(c1cnc(C(F)(F)F)nc1)N1CCOCC1)c1cccc2cnccc12 (stereo not shown)
Second: COc1ccc2ncccc2c1C(=O)NCC(c1cnc(C(F)(F)F)nc1)N1CCOCC1 (stereo not shown)
The “mean pIC50 values for P2X7 antagonism” value of the first is higher: 6.62 for the first, 4.67 for the second.

Going from `O=C(NCC(c1cnc(C(F)(F)F)nc1)N1CCCCC1)c1c(Cl)ccc2nc(O)ccc12` (stereo not shown) to `O=C(NCC(c1cnc(C(F)(F)F)nc1)N1CCOCC1)c1c(Cl)ccc2nc(NC[C@H](O)CO)ccc12` (stereo partly shown), the “mean pIC50 values for P2X7 antagonism” value rises from 6.78 to 7.47.

First: Cc1ccc2nc(N3CC[C@@H](O)C3)ccc2c1C(=O)NCC(c1cnc(C(F)(F)F)nc1)N1CCC(F)(F)CC1 (stereo partly shown)
Second: NC(=O)C1CCN(c2ccc3c(C(=O)NCC(c4cnc(C(F)(F)F)nc4)N4CCC(F)(F)CC4)c(Cl)ccc3n2)CC1 (stereo not shown)
The “mean pIC50 values for P2X7 antagonism” value of the first is higher: 8.36 for the first, 7.59 for the second.

First: CN1CCC[C@@H]1COc1ccc2c(C(=O)NCC(c3cnc(C(F)(F)F)nc3)N3CCOCC3)c(Cl)ccc2n1 (stereo partly shown)
Second: O=C1CC[C@@H](COc2ccc3c(C(=O)NCC(c4cnc(C(F)(F)F)nc4)N4CCOCC4)c(Cl)ccc3n2)N1 (stereo partly shown)
The “mean pIC50 values for P2X7 antagonism” value of the first is higher: 7.81 for the first, 7.51 for the second.

`O=C(NCC(c1cnc(C(F)(F)F)nc1)N1CCOCC1)c1c(Cl)ccc2nc(OCc3cccnc3)ccc12` (stereo not shown) and `NC12CC1CN(c1ccc3c(C(=O)NCC(c4cnc(C(F)(F)F)nc4)N4CCOCC4)c(Cl)ccc3n1)C2` (stereo not shown) are within 0.2 log units of each other in “mean pIC50 values for P2X7 antagonism” value: 8.45 for the first, 8.40 for the second.

Compared with `O=C(NCC(c1cnc(NCCO)nc1)N1CCC(F)(F)CC1)c1c(Cl)ccc2ncccc12` (stereo not shown), `CC(C)CN1CCN(c2ncc(C(CNC(=O)c3c(Cl)ccc4ncccc34)N3CCC(F)(F)CC3)cn2)CC1` (stereo not shown) is higher in “mean pIC50 values for P2X7 antagonism” value: 6.51 for the first, 7.90 for the second.

Going from `O=C(NCC(c1cnc(C(F)(F)F)nc1)N1CCC(F)(F)CC1)c1c(Cl)ccc2nc(OC3CNC3)ccc12` (stereo not shown) to `Cc1ccc2nc(NCCO)ccc2c1C(=O)NCC(c1cnc(C(F)(F)F)nc1)N1CCC(F)(F)CC1` (stereo not shown), the “mean pIC50 values for P2X7 antagonism” value rises from 6.63 to 8.43.
